# Test system: MDCK cells
# Assay: Photostick of MDCK cells (violet light crosslinking, ACCUTASE development)
# Assay type: cell-based, Canine
compound,measurement,setting,value
CC[N+]1=C(/C=C/C=C2/N(CCCCCC(=O)NCCNC(=O)CCSSCCNC(=O)C(CCCCNC(=O)CCCCC3SCC4NC(=O)NC43)NC(=O)c3ccc(N=[N+]=N)cc3)c3ccc(S(=O)(=O)O)cc3C2(C)C)C(C)(C)c2cc(S(=O)(=O)O)ccc21 (stereo not drawn) [Cy3-SBED],Illumination light dose yielding high photosticking efficiencies,"4 μM, 407 nm light, ACCUTASE 37° C. 3 min",above 550 J/cm^2
same,Concentration yielding good Photostick efficiency,"0.5-20 μM tested, 407 nm light 825 J/cm^2, ACCUTASE 37° C. 3 min",above 4 μM
[N-]=[N+]=Nc1ccc(F)c([N+](=O)[O-])c1,Retention of illuminated cells after ACCUTASE (in words),"4 μM, 407 nm light, ACCUTASE 3 min 37° C.",remaining cells clearly followed
